Experimental data as given in US20090099157A1, “TETRAHYDRO-PYRAZOLO-PYRIDINE THIOETHER MODULATORS OF CATHEPSIN S” (priority 2007, published 2009).

The chains behind the UniProt entries cited, without tags or fusion partners. Residues count along the entry.
UniProt P25774, 115-331: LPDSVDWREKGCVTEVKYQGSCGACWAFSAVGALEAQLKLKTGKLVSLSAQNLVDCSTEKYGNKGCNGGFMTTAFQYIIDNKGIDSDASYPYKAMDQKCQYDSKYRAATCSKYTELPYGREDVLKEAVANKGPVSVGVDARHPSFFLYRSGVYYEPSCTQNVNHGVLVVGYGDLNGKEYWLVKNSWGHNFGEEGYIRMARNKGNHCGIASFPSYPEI

molecular target: Recombinant human cathepsin S (CatS) (Homo sapiens, UniProt P25774); test: biochemical

| SMILES | IC50 |
| --- | --- |
| CS(=O)(=O)N1CCc2c(c(-c3ccc(C(F)(F)F)c(SCCN4CCOCC4)c3)nn2CC(O)CN2CCC(F)(F)CC2)C1 (stereo not shown) [Example 517, 1-(4,4-Difluoropiperidin-1-yl)-3-[5-(methylsulfonyl)-3-{3-[(2-morpholin-4-ylethyl)sulfanyl]-4-(trifluoromethyl)phenyl}-4,5,6,7-tetrahydro-1H-pyrazolo[4,3-c]pyridin-1-yl]propan-2-ol] | 540 nM |
| CS(=O)(=O)N1CCc2c(c(-c3ccc(C(F)(F)F)c(SCCN4CC[C@H](F)C4)c3)nn2C[C@@H](O)CN2CCC(N3C[C@H](O)CC3=O)CC2)C1 [Example 764, (4R)-1-{1-[(2S)-3-{3-[3-({2-[(3S)-3-Fluoropyrrolidin-1-yl]ethyl}sulfanyl)-4-(trifluoromethyl)phenyl]-5-(methylsulfonyl)-4,5,6,7-tetrahydro-1H-pyrazolo[4,3-c]pyridin-1-yl}-2-hydroxypropyl]piperidin-4-yl}-4-hydroxypyrrolidin-2-one] | 260 nM |
| CS(=O)(=O)N1CCc2c(c(-c3ccc(C(F)(F)F)c(SCCN4CCC(F)(F)CC4)c3)nn2C[C@@H](O)CN2CC3CCCC3C2)C1 (stereo partly drawn) [Example 612, (2S)-1-{3-[3-{[2-(4,4-Difluoropiperidin-1-yl)ethyl]sulfanyl}-4-(trifluoromethyl)phenyl]-5-(methylsulfonyl)-4,5,6,7-tetrahydro-1H-pyrazolo[4,3-c]pyridin-1-yl}-3-(hexahydrocyclopenta[c]pyrrol-2(1H)-yl)propan-2-ol] | 90 nM |
| CS(=O)(=O)NC1CCN(CC(O)Cn2nc(-c3ccc(C(F)(F)F)c(SCC(=O)N4CCCC4)c3)c3c2CCNC3)CC1 (stereo not shown) [Example 379, N-{1-[2-Hydroxy-3-(3-{3-[(2-oxo-2-pyrrolidin-1-ylethyl)sulfanyl]-4-(trifluoromethyl)phenyl}-4,5,6,7-tetrahydro-1H-pyrazolo[4,3-c]pyridin-1-yl)propyl]piperidin-4-yl}methanesulfonamide] | 1290 nM |
| CS(=O)(=O)N1CCc2c(c(-c3ccc(C(F)(F)F)c(SCC(=O)N4CCOCC4)c3)nn2CC(O)CN2CCC(c3ccccn3)CC2)C1 (stereo not shown) [Example 261, 1-[5-(Methylsulfonyl)-3-{3-[(2-morpholin-4-yl-2-oxoethyl)sulfanyl]-4-(trifluoromethyl)phenyl}-4,5,6,7-tetrahydro-1H-pyrazolo[4,3-c]pyridin-1-yl]-3-(4-pyridin-2-ylpiperidin-1-yl)propan-2-ol] | 10 nM |
| CCOc1ccccc1N1CCN(CC(O)Cn2nc(-c3ccc(C(F)(F)F)c(SCCN4CCC(F)(F)C4)c3)c3c2CCNC3)CC1 (stereo not shown) [Example 629, 1-{3-[3-{[2-(3,3-Difluoropyrrolidin-1-yl)ethyl]sulfanyl}-4-(trifluoromethyl)phenyl]-4,5,6,7-tetrahydro-1H-pyrazolo[4,3-c]pyridin-1-yl}-3-{4-[2-(ethyloxy)phenyl]piperazin-1-yl}propan-2-ol] | 1160 nM |
| CS(=O)(=O)N1CCc2c(c(-c3ccc(C(F)(F)F)c(SCCN4CCCC4)c3)nn2CC(O)CN2CCC(O)(c3ccccn3)CC2)C1 (stereo not shown) [Example 670, 1-{2-Hydroxy-3-[5-(methylsulfonyl)-3-{3-[(2-pyrrolidin-1-ylethyl)sulfanyl]-4-(trifluoromethyl)phenyl}-4,5,6,7-tetrahydro-1H-pyrazolo[4,3-c]pyridin-1-yl]propyl}-4-pyridin-2-ylpiperidin-4-ol] | 120 nM |
| O=c1[nH]nc(C2CCN(CC(O)Cn3nc(-c4ccc(C(F)(F)F)c(SCCN5CCCCC5)c4)c4c3CCNC4)CC2)[nH]1 (stereo not shown) [Example 357, 5-{1-[2-Hydroxy-3-(3-{3-[(2-piperidin-1-ylethyl)sulfanyl]-4-(trifluoromethyl)phenyl}-4,5,6,7-tetrahydro-1H-pyrazolo[4,3-c]pyridin-1-yl)propyl]piperidin-4-yl}-2,4-dihydro-3H-1,2,4-triazol-3-one] | 2700 nM |
| CC1(O)CCN(CCSc2cc(-c3nn(C[C@@H](O)CN4CCOCC4)c4c3CN(S(C)(=O)=O)CC4)ccc2C(F)(F)F)CC1 [Example 225, 1-(2-{[5-{1-[(2S)-2-Hydroxy-3-morpholin-4-ylpropyl]-5-(methylsulfonyl)-4,5,6,7-tetrahydro-1H-pyrazolo[4,3-c]pyridin-3-yl}-2-(trifluoromethyl)phenyl]sulfanyl}ethyl)-4-methylpiperidin-4-ol] | 1520 nM |
| O[C@@H](CN1CCN(c2ccccc2)CC1)Cn1nc(-c2ccc(C(F)(F)F)c(SCCN3CCC(F)CC3)c2)c2c1CCNC2 [Example 402, (2S)-1-{3-[3-{[2-(4-Fluoropiperidin-1-yl)ethyl]sulfanyl}-4-(trifluoromethyl)phenyl]-4,5,6,7-tetrahydro-1H-pyrazolo[4,3-c]pyridin-1-yl}-3-(4-phenylpiperazin-1-yl)propan-2-ol] | 510 nM |
| CS(=O)(=O)N1CCc2c(c(-c3ccc(C(F)(F)F)c(SCC(=O)N4CCOCC4)c3)nn2CC(O)CN2CCC(O)(c3ccccc3)CC2)C1 (stereo not shown) [Example 778, 1-{2-Hydroxy-3-[5-(methylsulfonyl)-3-{3-[(2-morpholin-4-yl-2-oxoethyl)sulfanyl]-4-(trifluoromethyl)phenyl}-4,5,6,7-tetrahydro-1H-pyrazolo[4,3-c]pyridin-1-yl]propyl}-4-phenylpiperidin-4-ol] | 65 nM |
| CS(=O)(=O)NC1CCN(CC(O)Cn2nc(-c3ccc(C(F)(F)F)c(SCCN4CCOCC4)c3)c3c2CCN(S(C)(=O)=O)C3)CC1 (stereo not shown) [Example 731, N-(1-{2-Hydroxy-3-[5-(methylsulfonyl)-3-{3-[(2-morpholin-4-ylethyl)sulfanyl]-4-(trifluoromethyl)phenyl}-4,5,6,7-tetrahydro-1H-pyrazolo[4,3-c]pyridin-1-yl]propyl}piperidin-4-yl)methanesulfonamide] | 420 nM |
| CS(=O)(=O)N1CCc2c(c(-c3ccc(C(F)(F)F)c(SCCN4CCCC(CO)C4)c3)nn2CC(O)CN2CCC(O)(c3ccccn3)CC2)C1 (stereo not shown) [Example 839, 1-(2-Hydroxy-3-{3-[3-({2-[3-(hydroxymethyl)piperidin-1-yl]ethyl}sulfanyl)-4-(trifluoromethyl)phenyl]-5-(methylsulfonyl)-4,5,6,7-tetrahydro-1H-pyrazolo[4,3-c]pyridin-1-yl}propyl)-4-pyridin-2-ylpiperidin-4-ol] | 90 nM |
| CS(=O)(=O)N1CCc2c(c(-c3ccc(C(F)(F)F)c(SCC(=O)N4CCC(CCc5ccccc5)CC4)c3)nn2CCCN2CCC(N3CCCC3=O)CC2)C1 [Example 105, 1-{1-[3-(5-Methanesulfonyl-3-{3-[2-oxo-2-(4-phenethyl-piperidin-1-yl)-ethylsulfanyl]-4-trifluoromethyl-phenyl}-4,5,6,7-tetrahydro-pyrazolo[4,3-c]pyridin-1-yl)-propyl]-piperidin-4-yl}-pyrrolidin-2-one] | 280 nM |
| CS(=O)(=O)N1CCc2c(c(-c3ccc(C(F)(F)F)c(SCCN4CCC(F)CC4)c3)nn2C[C@@H](O)CN2CCC(F)(F)CC2)C1 [Example 590, (2S)-1-(4,4-Difluoropiperidin-1-yl)-3-{3-[3-{[2-(4-fluoropiperidin-1-yl)ethyl]sulfanyl}-4-(trifluoromethyl)phenyl]-5-(methylsulfonyl)-4,5,6,7-tetrahydro-1H-pyrazolo[4,3-c]pyridin-1-yl}propan-2-ol] | 330 nM |
| C[C@H](O)C(=O)N1CCc2c(c(-c3ccc(C(F)(F)F)c(SCCN4CCOCC4)c3)nn2CC(O)CN2CCCCC2)C1 (stereo partly drawn) [Example 334, (2S)-1-[1-(2-Hydroxy-3-piperidin-1-ylpropyl)-3-{3-[(2-morpholin-4-ylethyl)sulfanyl]-4-(trifluoromethyl)phenyl}-1,4,6,7-tetrahydro-5H-pyrazolo[4,3-c]pyridin-5-yl]-1-oxopropan-2-ol] | 1030 nM |
| O=C1CCCN1C1CCN(CC(O)Cn2nc(-c3ccc(C(F)(F)F)c(SCCN4CCCCC4)c3)c3c2CCN(S(=O)(=O)Cc2ccccc2)C3)CC1 (stereo not shown) [Example 237, 1-{1-[2-Hydroxy-3-(5-[(phenylmethyl)sulfonyl]-3-{3-[(2-piperidin-1-ylethyl)sulfanyl]-4-(trifluoromethyl)phenyl}-4,5,6,7-tetrahydro-1H-pyrazolo[4,3-c]pyridin-1-yl)propyl]piperidin-4-yl}pyrrolidin-2-one] | 130 nM |
| CS(=O)(=O)N1CCc2c(c(-c3ccc(C(F)(F)F)c(SCCN4CCC(F)CC4)c3)nn2C[C@@H](O)CN2CCC3CCCCC3C2)C1 (stereo partly drawn) [Example 201, (2S)-1-{3-[3-{[2-(4-Fluoropiperidin-1-yl)ethyl]sulfanyl}-4-(trifluoromethyl)phenyl]-5-(methylsulfonyl)-4,5,6,7-tetrahydro-1H-pyrazolo[4,3-c]pyridin-1-yl}-3-(octahydroisoquinolin-2(1H)-yl)propan-2-ol] | 210 nM |
| CS(=O)(=O)N1CCc2c(c(-c3ccc(C(F)(F)F)c(SCCN4CCCCC4)c3)nn2CC(O)CN2CCN(c3ncccc3Cl)CC2)C1 (stereo not shown) [Example 799, 1-[4-(3-Chloropyridin-2-yl)piperazin-1-yl]-3-[5-(methylsulfonyl)-3-{3-[(2-piperidin-1-ylethyl)sulfanyl]-4-(trifluoromethyl)phenyl}-4,5,6,7-tetrahydro-1H-pyrazolo[4,3-c]pyridin-1-yl]propan-2-ol] | 10 nM |
| CS(=O)(=O)N1CCc2c(c(-c3ccc(C(F)(F)F)c(SCCN4CCCC(F)(F)C4)c3)nn2CCCN2CCC(N3CCCC3=O)CC2)C1 [Example 11, 1-{1-[3-(3-{3-[2-(3,3-Difluoro-piperidin-1-yl)-ethylsulfanyl]-4-trifluoromethyl-phenyl}-5-methanesulfonyl-4,5,6,7-tetrahydro-pyrazolo[4,3-c]pyridin-1-yl)-propyl]-piperidin-4-yl}-pyrrolidin-2-one] | 120 nM |
| COc1ccccc1C1CCN(CC(O)Cn2nc(-c3ccc(C(F)(F)F)c(SCCN4CCCCC4)c3)c3c2CCN(S(C)(=O)=O)C3)CC1 (stereo not shown) [Example 770, 1-{4-[2-(Methyloxy)phenyl]piperidin-1-yl}-3-[5-(methylsulfonyl)-3-{3-[(2-piperidin-1-ylethyl)sulfanyl]-4-(trifluoromethyl)phenyl}-4,5,6,7-tetrahydro-1H-pyrazolo[4,3-c]pyridin-1-yl]propan-2-ol] | 10 nM |
| CS(=O)(=O)N1CCc2c(c(-c3ccc(C(F)(F)F)c(SCCN4CCCC(F)C4)c3)nn2C[C@@H](O)CN2CCC(C(N)=O)CC2)C1 (stereo partly drawn) [Example 608, 1-[(2S)-3-{3-[3-{[2-(3-Fluoropiperidin-1-yl)ethyl]sulfanyl}-4-(trifluoromethyl)phenyl]-5-(methylsulfonyl)-4,5,6,7-tetrahydro-1H-pyrazolo[4,3-c]pyridin-1-yl}-2-hydroxypropyl]piperidine-4-carboxamide] | 180 nM |
